# Test results as given in PubChem BioAssay AID720707 (National Center for Advancing Translational Sciences (NCATS), 2013).
# Chains of the proteins cited; added tags and fusions are not shown.
# UniProt O95398, whole entry: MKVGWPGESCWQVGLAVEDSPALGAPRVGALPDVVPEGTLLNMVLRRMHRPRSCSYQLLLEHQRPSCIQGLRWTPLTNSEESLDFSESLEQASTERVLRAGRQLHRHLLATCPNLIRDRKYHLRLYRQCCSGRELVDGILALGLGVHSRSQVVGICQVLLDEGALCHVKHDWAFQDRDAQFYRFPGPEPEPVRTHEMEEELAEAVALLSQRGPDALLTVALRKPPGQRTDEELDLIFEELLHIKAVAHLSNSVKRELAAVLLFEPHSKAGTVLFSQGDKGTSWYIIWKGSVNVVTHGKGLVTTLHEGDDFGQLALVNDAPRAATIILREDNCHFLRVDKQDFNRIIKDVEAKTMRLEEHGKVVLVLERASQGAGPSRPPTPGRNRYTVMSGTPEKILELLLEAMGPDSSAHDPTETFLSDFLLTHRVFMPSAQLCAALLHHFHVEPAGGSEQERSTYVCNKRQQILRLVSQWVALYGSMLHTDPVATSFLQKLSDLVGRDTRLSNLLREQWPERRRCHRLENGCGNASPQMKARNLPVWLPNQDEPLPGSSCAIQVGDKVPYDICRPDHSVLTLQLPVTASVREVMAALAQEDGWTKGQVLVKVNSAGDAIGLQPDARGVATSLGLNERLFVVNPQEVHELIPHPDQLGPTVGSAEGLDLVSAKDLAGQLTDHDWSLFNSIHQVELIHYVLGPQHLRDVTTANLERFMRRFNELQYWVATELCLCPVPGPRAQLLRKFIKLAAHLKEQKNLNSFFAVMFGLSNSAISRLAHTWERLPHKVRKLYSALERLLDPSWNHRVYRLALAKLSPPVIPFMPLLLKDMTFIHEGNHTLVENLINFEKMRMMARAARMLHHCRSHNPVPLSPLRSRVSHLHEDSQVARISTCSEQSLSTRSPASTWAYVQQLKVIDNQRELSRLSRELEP
# The list shows a part of the results, in another mix than the full data. Some results for these compounds are left out of this collection, so the calls shown say nothing about other tests. Active and inactive are the calls of the source. Calls come from the whole dose curve; as a rule, active = well fitted activation curve with a large enough effect; inconclusive = small, poorly fitted or top-dose-only effect; inactive = no such curve, though single readings can be large or run the other way.
# Target: Rap guanine nucleotide exchange factor 3 (Homo sapiens) (UniProt O95398)
# Assay: qHTS for Agonist of cAMP-regulated guanine nucleotide exchange factor 3 (EPAC1): primary screen; note: nearly all actives have a fitted effect of over 60% in size
# Details: biochemical assay, 100% = response to 6.5 mM cAMP; at 154 µM (top of the series)
# Text: In multi-cellular eukaryotic organisms, the effects of cAMP are transduced by two ubiquitously-expressed intracellular cAMP receptors, the classic protein kinase A/cAMP-dependent protein kinase (PKA/cAPK) and the more recently discovered exchange protein directly activated by cAMP/cAMP-regulated guanine nucleotide exchange factor (EPAC/cAMP-GEF). Both PKA and EPAC are ubiquitously expressed in all tissues, and an increase in intracellular cAMP levels will lead to the activation of both PKA and EPAC. Therefore, careful dissections of the individual role and relative contribution of EPAC and PKA within the overall cAMP signaling in various model systems are critical for further elucidating the mechanism of cAMP signaling. To date no EPAC-specific antagonists and agonist, as well as isoform-specific agonists have been reported, and developing EPAC-specific pharmacological probes to determine the physiological functions that EPAC play in the overall cAMP-mediated signaling remains a major challenge within the research field. Furthermore, identified regulators of EPAC may lead to new mechanism-based therapeutic strategies specifically targeting the EPAC / cAMP-signaling components as EPAC has been implicated to play important roles in major human pathological conditions such as diabetes, heart disease, and cancer.
# This qHTS will be used to screen the Molecular Libraries Small Molecule Repository (MLSMR) as a concentration-titration series using the NCGC unique quantitative screening (qHTS) platform to find activators for EPAC1. In addition, this assay will also be used as a counterscreen for the EPAC2 qHTS. This fluorescent based assay is developed and validated for EPAC1 that measures exchange using EPAC effector Rap1 complex with BODIPY-GDP, a GDP analog with a tethered fluorophores. Activators are identified by monitoring the change in fluorescence signal as the exchanged free BODIPY-GDP has a reduced fluorescence compared to Rap1-bound BODIPY-GDP. Increase in signal (activation) is the desired outcome for the EPAC1 agonist while no activity in this assay is desired for the EPAC2 agonist counterscreen.
# [1] de Rooij, J., Zwartkruis, F. J., Verheijen, M. H., Cool, R. H., Nijman, S. M., Wittinghofer, A., and Bos, J.L. (1998) Nature 396, 474-477
# NIH Chemical Genomics Center [NCGC]
# NIH Molecular Libraries Probe Centers Network [MLPCN]
# Assay Submitter (PI): Xiaodong Cheng, The University of Texas Medical Branch
# Briefly, three uL of reagents (100 nM EPAC1, 250 nM RAP1B-BODIPY-GDP, 50 uM GDP) were dispensed into a 1536-well Greiner black solid-bottom medium binding assay plate. Controls and test compounds (23 nL) were transferred to the plate via a Kalypsys pin tool equipped with a 1536-pin array. The plates were centrifuged at 1,000 rpm for 15 seconds followed by 5 minute incubation at room temperature. The assay plates were read at 5 minute intervals for 30 minutes in the ViewLux plate reader using 480nm excitation and 540nm emission filters. The results were normalized to the agonist positive control of 6.5 mM cAMP.
row,SMILES,activation
1,Cc1ccc(C(=O)NCC2(N3CCCCC3)CCCCC2)cc1,inactive: -4.17%
2,CC(C)N1C(=O)CC2(CCN(CCOC(=O)C(O)(c3ccccc3)c3ccccc3)CC2)C1=O,inactive: -5.01%
3,CCN(CC)CC(C)C(C)OC(=O)C(O)(c1ccccc1)c1ccccc1 (stereo unspecified),inactive: 0.528%
4,COc1cc(SC)ccc1C(=O)NCC1(N(C)C)CCCCC1,inactive: 14.1%
5,CN1[C@@H]2CC[C@H]1CC(OC(=O)C(O)(c1ccccc1)c1ccccc1)C2 (stereo partly specified),inactive: -6.6%
6,O=C(NCC1(N2CCCCC2)CCCCC1)c1cc([N+](=O)[O-])ccc1Cl,inactive: -7.7%
7,CCN1CCCC(OC(=O)C2(O)c3ccccc3C=Cc3ccccc32)C1 (stereo unspecified),inactive: 4.82%
8,Cc1cc(C(=O)NCC2(N3CCCCC3)CCCCC2)ccc1[N+](=O)[O-],inactive: 6.62%
9,O=C(NCC1(N2CCCCC2)CCCCC1)c1cccc(Br)c1,inactive: 4.62%
10,COc1ccc(C(=O)NCC2(N(C)C)CCCCC2)cc1,inactive: -7.78%
11,C=CCN1CCN(CCOC(=O)C(O)(c2ccccc2)c2ccccc2)CC1,inactive: -4.31%
12,O=C(NCC1(N2CCCCC2)CCCCC1)c1cc(F)c(F)cc1Cl,inactive: 6.15%
13,Cc1ccccc1C(=O)NCC1(N2CCCCC2)CCCCC1,inactive: 13.1%
14,CN(C)c1ccc(C(=O)NCC2(N(C)C)CCCCC2)cc1,inactive: 6.59%
15,CN(C)C1CCCC1OC(=O)C(O)(c1ccccc1)c1ccccc1 (stereo unspecified),inactive: -6.31%
16,O=C(NCC1(N2CCCCC2)CCCCC1)c1cccc(Cl)c1,inactive: 6.14%
17,COc1cccc(C(=O)NCC2(N3CCCCC3)CCCCC2)c1,inactive: 1.14%
18,COc1ccc(Cl)cc1C(=O)NCC1(N(C)C)CCCCC1,inactive: 2.64%
19,COc1cc(C(=O)NCC2(N(C)C)CCCCC2)c([N+](=O)[O-])cc1OC,inactive: 7.9%
20,CN(C)C1(CNC(=O)c2ccc(Br)cc2)CCCCC1,inactive: 4.56%
21,CN(C)c1cccc(C(=O)NCC2(N(C)C)CCCCC2)c1,inactive: 2.1%
22,CC(C)Oc1ccc(C(=O)NCC2(N(C)C)CCCCC2)cc1,inactive: 4.22%
23,O=C(OCCN1CCCC1)C(O)(c1ccccc1)c1ccccc1,inactive: 8.54%
24,COc1ccc(Br)c(C(=O)NCC2(N3CCCCC3)CCCCC2)c1,inactive: -1.86%
25,C=C(C)C#CC(O)(C(=O)OC1CCN(C)CC1)c1ccccc1 (stereo unspecified),inactive: -8.91%
26,O=C(OC1CN2CCC1CC2)C(CO)(c1ccccc1)c1ccccc1 (stereo unspecified),inactive: 4.3%
